From patent US9895407B2, “Disinfecting formulations and uses thereof” (Sunny Wipes Pty Ltd, priority 2011, dated 2018)

Tested on: hand microflora
Test: Surgical handrub test, EN 12791:2005
Assay type: in vivo, human
Conditions: 5 volunteers, two 4.6 ml aliquots, 60 seconds total exposure, left hand

`CCCO` [60% propan-1-ol, propan-1-ol] was tested, and the “reduction of hand microflora, immediately” value was 1.61 Logs.
